Biological target: Protease (Human immunodeficiency virus 1, UniProt Q9YQ12)
Test: Inhibition of wild type HIV1 protease by FRET

SMILES: Cc1cccc(C)c1OCC(=O)N[C@@H](Cc1ccccc1)[C@@H](O)C[C@H](Cc1ccccc1)NC(=O)[C@H](C(C)C)N1CCCNC1=O [LOPINAVIR]
- Ki: 5 pM
